Reference: ChEMBL document CHEMBL4495564, “Identification of inhibitors of SARS-Cov2 M-Pro enzymatic activity using a small molecule repurposing screen” (2020)
pIC50: −log10 of the molar value.

Target: Replicase polyprotein 1ab (Severe acute respiratory syndrome coronavirus 2, UniProt P0DTD1)
Assay: biochemical
Type: functional

Compound: O=C1C(Cl)=C(N2CCOCC2)C(=O)N1c1ccc(Cl)c(Cl)c1
- pIC50: 5.34
